These results are taken from PubChem BioAssay AID2197 (Vanderbilt High Throughput Screening Facility, 2009).

By UniProt entry, the sequences of proteins in these tests, tags left out. Where a name states a change or a piece, a line headed by the entry shows the natural chain unless it says otherwise.
UniProt Q14833: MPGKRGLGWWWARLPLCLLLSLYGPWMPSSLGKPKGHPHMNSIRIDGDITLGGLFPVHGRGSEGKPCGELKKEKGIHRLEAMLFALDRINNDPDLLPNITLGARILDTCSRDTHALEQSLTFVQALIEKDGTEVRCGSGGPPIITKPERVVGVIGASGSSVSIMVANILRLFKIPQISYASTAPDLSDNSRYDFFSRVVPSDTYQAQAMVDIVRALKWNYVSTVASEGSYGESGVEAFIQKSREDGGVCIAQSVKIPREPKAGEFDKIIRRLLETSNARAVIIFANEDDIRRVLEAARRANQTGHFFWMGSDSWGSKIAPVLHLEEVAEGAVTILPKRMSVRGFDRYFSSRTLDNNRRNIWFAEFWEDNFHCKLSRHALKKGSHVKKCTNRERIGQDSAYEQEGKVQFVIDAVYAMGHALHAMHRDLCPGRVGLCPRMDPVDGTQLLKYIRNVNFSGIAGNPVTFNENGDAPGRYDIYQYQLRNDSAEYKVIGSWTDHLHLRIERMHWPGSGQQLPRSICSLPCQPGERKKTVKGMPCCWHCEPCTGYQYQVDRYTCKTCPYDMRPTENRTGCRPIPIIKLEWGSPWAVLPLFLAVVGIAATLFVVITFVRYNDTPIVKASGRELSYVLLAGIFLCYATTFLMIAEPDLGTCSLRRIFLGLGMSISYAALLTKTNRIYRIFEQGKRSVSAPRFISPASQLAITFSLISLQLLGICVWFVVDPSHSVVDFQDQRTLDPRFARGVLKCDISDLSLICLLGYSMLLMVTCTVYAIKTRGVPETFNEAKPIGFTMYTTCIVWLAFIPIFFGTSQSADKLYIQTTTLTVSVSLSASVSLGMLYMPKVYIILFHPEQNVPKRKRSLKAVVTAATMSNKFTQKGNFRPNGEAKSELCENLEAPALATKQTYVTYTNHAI

In the experiment the target is Metabotropic glutamate receptor 4 (Homo sapiens) (UniProt Q14833). The experiment is described as follows: PubChem AID 2197. To be noted: CHO hmGluR4/Gqi5 calcium mobilization, PAM potency.
Take `O=C(Nc1ccc(N2C(=O)CC(c3ccccc3)C2=O)c(Cl)c1)c1ccccn1` (stereo not given): the EC50 is 823 nM.
Consider `O=C(Nc1ccc(N2C(=O)C3[C@@H]4C=C[C@@H](CC4)[C@H]3C2=O)c(Cl)c1)c1ccccn1` (stereo not given in full), for which the EC50 was 318 nM.
As to `O=C(Nc1ccc(N2C(=O)CC3(CCCCC3)C2=O)c(Cl)c1)c1ccccn1`, the EC50 was 154 nM.
`CC1(C)[C@@H]2C(=O)N(c3ccc(NC(=O)c4ccccn4)cc3Cl)C(=O)[C@@H]21`: the EC50 was 473 nM.
Take `CC1(c2ccccc2)CC(=O)N(c2ccc(NC(=O)c3ccccn3)cc2Cl)C1=O` (stereo not given): the EC50 was 837 nM.
Regarding `O=C(Nc1ccc(NC(=O)c2ccccc2Cl)c(F)c1)c1ccccn1`, the EC50 was 480 nM.
On to `O=C(Nc1ccc(N2C(=O)C3CCCC[C@@H]3C2=O)c(Cl)c1)c1ccccn1` (stereo not given in full), for which the EC50 was 265 nM.
Regarding `COc1cc(NC(=O)c2ccccn2)ccc1NC(=O)c1ccccc1Cl`, the EC50 is 95.3 nM.
Consider `O=C(Nc1ccc(N2C(=O)c3cccc(Cl)c3C2=O)c(Cl)c1)c1ccccn1`, for which the half-maximal effective concentration (EC50) was 47.1 nM.
In the case of `O=C(Nc1ccc(N2C(=O)c3ccccc3C2=O)c(Cl)c1)c1ccccn1`, the EC50 is 60.3 nM.
